pIC50: −log10 of the molar value. Read-outs that look alike come from different tables or passages of the source.
How the values were obtained:
Assay type in all cases: cell-based
[1] = target: T1, integrin αIIbβ3 (Homo sapiens, UniProt P05106+P08514)
T1 construct: host or cells: CHO (CHO-αIIbβ3)

Sequences of proteins named here, by UniProt entry; tags and fusion partners are left off. Residues count along the entry.
UniProt P05106, 27-788: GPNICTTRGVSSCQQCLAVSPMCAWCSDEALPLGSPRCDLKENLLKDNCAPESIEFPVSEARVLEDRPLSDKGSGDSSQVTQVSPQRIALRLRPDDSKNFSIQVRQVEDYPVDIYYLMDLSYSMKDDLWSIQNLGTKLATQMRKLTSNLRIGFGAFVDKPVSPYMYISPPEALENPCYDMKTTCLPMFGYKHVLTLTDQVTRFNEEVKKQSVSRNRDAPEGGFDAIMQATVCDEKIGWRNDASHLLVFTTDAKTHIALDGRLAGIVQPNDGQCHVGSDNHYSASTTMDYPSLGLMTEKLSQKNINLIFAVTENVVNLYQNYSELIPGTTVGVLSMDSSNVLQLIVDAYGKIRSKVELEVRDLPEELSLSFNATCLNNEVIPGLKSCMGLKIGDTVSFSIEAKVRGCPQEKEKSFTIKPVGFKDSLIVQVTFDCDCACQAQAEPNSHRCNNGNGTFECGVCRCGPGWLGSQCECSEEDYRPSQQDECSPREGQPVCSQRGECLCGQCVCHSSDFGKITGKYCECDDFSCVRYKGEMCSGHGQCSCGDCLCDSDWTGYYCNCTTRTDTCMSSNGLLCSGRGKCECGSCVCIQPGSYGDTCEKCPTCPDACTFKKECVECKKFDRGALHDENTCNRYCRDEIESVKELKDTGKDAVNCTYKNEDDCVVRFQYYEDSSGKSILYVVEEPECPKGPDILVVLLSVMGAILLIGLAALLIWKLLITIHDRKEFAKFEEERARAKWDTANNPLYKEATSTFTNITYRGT
UniProt P08648, 895-1049 partner limits assumed: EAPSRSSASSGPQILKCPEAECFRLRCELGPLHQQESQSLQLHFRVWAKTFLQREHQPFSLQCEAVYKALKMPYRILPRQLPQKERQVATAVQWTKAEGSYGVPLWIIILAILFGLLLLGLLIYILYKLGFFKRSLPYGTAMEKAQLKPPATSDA
UniProt P08648, 42-894 limits assumed: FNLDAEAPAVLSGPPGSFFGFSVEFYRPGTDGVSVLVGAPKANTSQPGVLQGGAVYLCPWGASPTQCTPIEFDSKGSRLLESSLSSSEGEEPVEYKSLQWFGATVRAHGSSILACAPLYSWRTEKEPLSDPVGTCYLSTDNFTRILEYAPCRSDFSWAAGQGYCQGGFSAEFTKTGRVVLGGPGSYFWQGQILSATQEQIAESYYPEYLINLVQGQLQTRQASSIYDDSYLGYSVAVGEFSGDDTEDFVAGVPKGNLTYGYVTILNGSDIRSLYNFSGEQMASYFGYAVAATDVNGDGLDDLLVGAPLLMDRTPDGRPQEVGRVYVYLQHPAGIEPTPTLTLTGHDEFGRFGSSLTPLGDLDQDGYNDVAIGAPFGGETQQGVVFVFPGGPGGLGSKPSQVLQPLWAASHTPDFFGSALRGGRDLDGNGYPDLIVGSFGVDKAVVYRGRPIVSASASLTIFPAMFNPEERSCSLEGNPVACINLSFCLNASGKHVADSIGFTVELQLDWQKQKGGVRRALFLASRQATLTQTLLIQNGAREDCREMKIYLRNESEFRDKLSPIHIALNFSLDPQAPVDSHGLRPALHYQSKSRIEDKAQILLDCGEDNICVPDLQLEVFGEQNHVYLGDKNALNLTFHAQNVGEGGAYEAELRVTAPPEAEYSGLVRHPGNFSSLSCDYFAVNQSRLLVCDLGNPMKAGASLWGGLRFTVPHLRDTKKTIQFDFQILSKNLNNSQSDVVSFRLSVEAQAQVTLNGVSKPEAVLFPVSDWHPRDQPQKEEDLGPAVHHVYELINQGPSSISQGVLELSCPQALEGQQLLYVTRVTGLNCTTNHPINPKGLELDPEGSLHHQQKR
UniProt P06756, 31-1048: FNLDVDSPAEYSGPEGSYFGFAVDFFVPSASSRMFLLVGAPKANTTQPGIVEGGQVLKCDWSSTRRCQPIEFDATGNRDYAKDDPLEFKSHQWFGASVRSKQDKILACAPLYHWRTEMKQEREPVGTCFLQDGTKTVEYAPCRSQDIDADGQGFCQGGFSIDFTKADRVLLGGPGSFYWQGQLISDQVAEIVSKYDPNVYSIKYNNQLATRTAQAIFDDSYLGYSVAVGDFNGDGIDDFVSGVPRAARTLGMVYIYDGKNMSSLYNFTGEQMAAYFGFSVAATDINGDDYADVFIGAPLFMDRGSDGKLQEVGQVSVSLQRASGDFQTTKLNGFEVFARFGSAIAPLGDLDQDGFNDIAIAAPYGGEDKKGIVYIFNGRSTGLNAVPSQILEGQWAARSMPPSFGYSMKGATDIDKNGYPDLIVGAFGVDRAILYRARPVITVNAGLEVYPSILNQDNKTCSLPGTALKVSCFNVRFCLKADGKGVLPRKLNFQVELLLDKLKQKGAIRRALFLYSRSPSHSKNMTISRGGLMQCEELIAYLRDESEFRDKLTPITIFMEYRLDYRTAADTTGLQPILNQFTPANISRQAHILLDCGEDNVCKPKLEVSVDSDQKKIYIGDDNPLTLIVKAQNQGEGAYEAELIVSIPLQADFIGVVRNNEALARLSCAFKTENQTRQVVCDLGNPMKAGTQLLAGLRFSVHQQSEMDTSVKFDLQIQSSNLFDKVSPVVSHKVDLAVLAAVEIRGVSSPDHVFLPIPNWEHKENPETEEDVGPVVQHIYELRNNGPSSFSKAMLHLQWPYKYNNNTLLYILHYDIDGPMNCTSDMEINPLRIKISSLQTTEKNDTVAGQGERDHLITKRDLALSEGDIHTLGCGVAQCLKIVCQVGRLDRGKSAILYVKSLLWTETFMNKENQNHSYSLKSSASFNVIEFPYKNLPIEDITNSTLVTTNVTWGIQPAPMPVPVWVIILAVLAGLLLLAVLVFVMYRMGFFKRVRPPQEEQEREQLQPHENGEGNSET

[2] = target: platelet aggregation (Homo sapiens, UniProt P05106+P08514)
[3] = target: T2, integrin α5β1 (Homo sapiens, UniProt P05556+P08648)
T2 construct: Human erythroleukemia K562 cells were purchased from ATCC; host or cells: K562

[4] = target: integrin αvβ3 (UniProt P05106+P06756)

For “RD: rhodostomin variant having a RGD motif variant ^48PRLDMP^53, SEQ ID NO: 36”, the pIC50 ([1]; read-out: IC50 αIIbβ3) was 5.65, the pIC50 ([1]; read-out: IC50 αllbβ3/Fg) was 5.65 and the pIC50 [2] was 6.36. The pIC50 ([3]; read-out: IC50 α5β1) was 5.52, the pIC50 ([3]; read-out: IC50 α5β1/Fn) was 5.52 and the pIC50 ([4]; read-out: IC50 αvβ3) was 7.46. For the same substance, the pIC50 ([4]; read-out: IC50 αvβ3/Fg) was 7.46.

Source: patent US8183201B2 (priority 2006, dated 2012)
